A word on the IC50: it is the point on the concentration scale where inhibition reaches its midpoint.

The chains behind the UniProt entries cited, without tags or fusion partners.
UniProt O14744, whole entry: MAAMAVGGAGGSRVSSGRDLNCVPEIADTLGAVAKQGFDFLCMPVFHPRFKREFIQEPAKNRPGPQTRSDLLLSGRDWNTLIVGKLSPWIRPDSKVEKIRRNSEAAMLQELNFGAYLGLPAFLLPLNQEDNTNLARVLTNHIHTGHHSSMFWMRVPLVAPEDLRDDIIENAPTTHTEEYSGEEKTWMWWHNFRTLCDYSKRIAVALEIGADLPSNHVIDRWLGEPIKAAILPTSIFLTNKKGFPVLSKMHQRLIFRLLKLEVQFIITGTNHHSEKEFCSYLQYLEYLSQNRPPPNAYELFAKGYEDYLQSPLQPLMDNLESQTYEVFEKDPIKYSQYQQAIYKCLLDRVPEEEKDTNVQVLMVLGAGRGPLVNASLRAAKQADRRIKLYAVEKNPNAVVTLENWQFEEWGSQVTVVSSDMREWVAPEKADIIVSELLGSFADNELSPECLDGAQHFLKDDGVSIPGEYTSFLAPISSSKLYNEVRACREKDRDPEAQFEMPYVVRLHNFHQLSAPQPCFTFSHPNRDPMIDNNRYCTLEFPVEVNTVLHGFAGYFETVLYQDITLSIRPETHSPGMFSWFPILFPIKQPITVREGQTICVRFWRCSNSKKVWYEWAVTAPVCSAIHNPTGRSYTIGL
UniProt Q9BQA1, whole entry partner: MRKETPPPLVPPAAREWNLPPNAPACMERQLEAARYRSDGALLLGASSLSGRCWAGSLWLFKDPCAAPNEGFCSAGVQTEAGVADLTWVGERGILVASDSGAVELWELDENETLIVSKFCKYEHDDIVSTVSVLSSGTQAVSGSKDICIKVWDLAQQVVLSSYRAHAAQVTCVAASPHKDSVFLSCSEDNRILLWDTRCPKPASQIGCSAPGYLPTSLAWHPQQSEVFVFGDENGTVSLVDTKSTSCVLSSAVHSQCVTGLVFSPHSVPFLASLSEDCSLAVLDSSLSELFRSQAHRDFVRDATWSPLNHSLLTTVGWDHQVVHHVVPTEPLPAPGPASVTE

The experiment deals with PRMT5/MEP50 (Homo sapiens, UniProt O14744). Description: PRMT5/MEP50 enzyme inhibition assay, Assay 2 (384-well, MALDI mass spectrometry, SAM, histone H4 1-21 peptide). The note with it: read-out: Assay 2 IC50; 1 μM SAM, 0.1 μM histone H4 1-21 peptide, 18-hour incubation at rt. As for the experimental part: Compounds were tested for inhibition of methyltransferase activity in 384-well plate assay format using mass spectrometry technology. In this enzyme inhibition assay, compounds were tested in a 11-dose IC50 mode with 3-serial dilution, in duplicate, starting at 1, 10, or 100 μM. Reactions were carried out at 1 μM SAM and 0.1 μM histone H4 1-21 peptide as substrates for methyl transfer. Following an 18-hour incubation at rt, the reaction was stopped with 0.5% formic acid. Products of the reaction were captured while unreacted substrates were washed away, prior to MALDI mass spectrometry detection and analysis. Percent enzyme activity was calculated based on no inhibitor DMSO control as 100% activity. EC50 values were determined in GraphPad Prism 8 using the [inhibitor] vs. response—Variable slope (four parameters) function.
Compounds of Formula (I) show activity in this assay. A value of ‘A’ in the table below indicates an IC50 of <1 nM, a value of ‘B’ indicates an IC50≥1 nM to ≤100 nM, and a value of ‘C’ indicates an IC50 value of >100 nM.

On to `COC[C@]1(CCc2cc(F)c3cc(Cl)c(N)nc3c2)C[C@@H](n2ccc3c(N)nccc32)[C@H](O)[C@@H]1O`, for which the IC50 was under 1 nM.

Source of the values: patent publication US20220112194A1, “COMPOUNDS TARGETING PRMT5” (ALIGOS THERAPEUTICS, INC., priority 2020, published 2022).
